System: L858R/T790M EGFR phosphorylation in FKBP12^F36V-PTPN2 H1975 cells
Experiment: EGFR dephosphorylation by Western blot in FKBP12F36V-PTPN2 H1975 cells
Type: cell-based
Details: 24 h, irrespective of EGF stimulation (fig. S16)

## COc1cc2ncnc(Nc3ccc(F)c(Cl)c3)c2cc1OCCCN1CCOCC1 [gefitinib]
  EGFR dephosphorylation in H1975: limited EGFR dephosphorylation

Source: article PMC10971414 (Science Advances, 2024)
